In paper PMC3484126 (PLoS ONE, 2012):

Target: coumarin-labelled p53 (1–57) (UniProt P04637 1-57, coumarin label (position not given))

Kd: 30 µM
B1: KLF4 (271–479) (domain or fragment)
chain: PRTCPKIKQEAVSSCTHLGAGPPLSNGHRPAAHDFPLGRQLPSRTTPTLGLEEVLSSRDCHPALPLPPGFHPHPGPNYPSFLPDQMQPQVPPLHYQELMPPGSCMPEEPKPKRGRRSWPRKRTATHTCDYAGCGKTYTKSSHLKAHLRTHTGEKPYHCDWDGCGWKFARSDELTRHYRKHTGHRPFQCQKCDRAFSRSDHLALHMKRHF
